The record followed here is US10543279B2, “Pyrrolobenzodiazepine conjugates and their use for the treatment of cancer” (priority 2016, dated 2020).

Data set [1] relates to subcutaneous BT474 tumors. The data set is described as follows: BT474 xenograft testing. The class given is in vivo, mice. Here is the method:
(§1) (68-72° F.) and 40-60% humidity. […] The animal care and use program at CR Discovery Services is accredited by the Association for Assessment and Accreditation of Laboratory Animal Care International (AAALAC), which assures compliance with accepted standards for the care and use of laboratory animals.
Tumors were measured in two dimensions using calipers, and volume was calculated using the formula: […]

A further data set concerns BT474. The following applies: breast carcinoma, ADC exposure 5 days, MTS. Here is the method: (§2) A set of 8×10-fold dilutions of stock ADC were made in a 24 well plate by serial transfer of 100 μl onto 900 μl of cell culture medium.
Another data set concerns SKBR3. The following applies: breast carcinoma, ADC exposure 4 days, MTS. The protocol:
as §2

The subject of another data set is NCI-N87. The following applies: gastric carcinoma, ADC exposure 7 days, MTS. Here is the method: as §2
The nature of data set [2]: Single dose toxicity study in rat / Therapeutic Index. The class given is in vivo. As to conditions: male rats, 1.5 mg/kg high dose group, single iv dose.
In data set [3] the test system is subcutaneous JIMT-1 tumours. The data set is described as follows: JIMT-1 xenograft testing. The class given is in vivo, mice. Here is the method:
as §1

In data set [4] the test system is subcutaneous NCI-N87 tumours. The experiment in a line: NCI-N87 xenograft testing. Type of data set: in vivo, mice. From the text: Female severe combined immune-deficient mice (Fox Chase SCID®, C.B-17/Icr-Prkdcscid, Charles River) were ten weeks old with a body weight (BW) range of 16.2 to 21.9 grams on Day 1 of the study. The animals were fed ad libitum water (reverse osmosis, 1 ppm Cl), and NIH 31 Modified and Irradiated Lab Diet® consisting of 18.0% crude protein, 5.0% crude fat, and 5.0% crude fibre. The mice were housed on irradiated Enricho'Cobs™ Laboratory Animal Bedding in static micro-isolators on a 12-hour light cycle at 20-22° C. (68-72° F.) and 40-60% humidity. CR Discovery Services specifically complies with the recommendations of the Guide for Care and Use of Laboratory Animals with respect to restraint, husbandry, surgical procedures, feed and fluid regulation, and veterinary care. The animal care and use program at CR Discovery Services is accredited by the Association for Assessment and Accreditation of Laboratory Animal Care International (AAALAC), which assures compliance with accepted standards for the care and use of laboratory animals. […]
The NCI-N87 cells used for implantation were harvested during log phase growth and Re-suspended in phosphate buffered saline (PBS) containing 50% Matrigel™ (BD Biosciences). On the day of tumour implant, each test mouse was injected subcutaneously in the right flank with 1×10^7 cells (0.1 mL cell suspension), and tumour growth was monitored as the average size approached the target range of 100 to 150 mm^3. Fourteen days later, designated as Day 1 of the study, mice were sorted according to calculated tumour size into groups each consisting of ten animals with individual tumour volumes ranging from 108 to 172 mm^3 and group mean tumour volumes of 133 mm^3.
Tumours were measured in two dimensions using calipers, and volume was calculated using the formula:
Treatment began on Day 1 in groups of 10 mice (n=10) with established subcutaneous NCI-N87 tumours (108-172 mm^3). […] Tumours were measured twice per week until the study was ended on Day 78. […] The time to endpoint (TTE) was calculated for each mouse. […]

For trastuzumab-6, the “partial regressions (PR)” value in data set [1] (0.3 mg/kg iv qd×1, n=10) is on record as “four”; in data set [1] (1.0 mg/kg iv qd×1, n=10), “seven”; in data set [3] (0.3 mg/kg iv qd×1, n=10), “one”; in data set [3] (1.0 mg/kg iv qd×1, n=10) it was “two”; in data set [4] (0.4 mg/kg iv qd×1, n=10) it was “one”; in data set [4] (0.6 mg/kg iv qd×1, n=10), “three”. In addition, the “complete regressions (CR), remained tumour-free survivor (TFS) at study end” value in data set [1] (1.0 mg/kg iv qd×1, n=10, Day 60) is “one”. In addition, the “IC50 (μg/ml) in BT474” value in the data set with BT474 turned out to be 1.935 µg/mL. Moreover, the “IC50 (μg/ml) in SKBR3” value in the data set on SKBR3 stood at 0.085 µg/mL. Also, the “IC50 (μg/ml) in NCI-N87” value with NCI-N87 amounted to 0.024 µg/mL. The adverse findings result in data set [2] was “minimal adverse findings”. Moreover, in data set [3] (1.0 mg/kg iv qd×1, n=10, Day 64), the “complete regressions (CR), remained tumour-free survivors (TFS) at study end” value was “three”. In data set [4] (SCID mice, iv qd×1, visual inspection of tumour volume plots), the “minimum effective dose (tumour stasis for twenty-eight days)” value is recorded as 0.4 mg/kg.
